Earlier results on one compound are cited in patent US20050192221A1, “Methods and compositions related to plunc polypeptides” (priority 2003, published 2005).

Where two headings read alike, the source gives them in different places.

For one series, the system named is Bordetella parapertussis. The arrangement: unit not given beside the values. To be noted: cited from earlier work.
In series [1] the test system is Staphylococcus coagulase f. The arrangement: MIC90: unit not given beside the values. To be noted: cited from earlier work.
Setting [2] is: Staphylococcus coagulase f (non β-lactamase producer).
Setting [3] is: Staphylococcus coagulase f (β-lactamase producer).

On to `CC[C@H]1OC(=O)[C@H](C)[C@@H](O[C@H]2C[C@@](C)(OC)[C@@H](O)[C@H](C)O2)[C@H](C)[C@@H](O[C@@H]2O[C@H](C)C[C@H](N(C)C)[C@H]2O)[C@](C)(O)C[C@@H](C)C(=O)[C@H](C)[C@@H](O)[C@]1(C)O` [ERYTHROMYCIN, erythromycin], for which the MIC90 in the series on Bordetella parapertussis is given as 0.25; in series [1] (setting [2]) it was 0.25; in series [1] (setting [3]) it was 4. The “Range (of MIC)” value in series [1] (setting [2]) was 0.03-8; in series [1] (setting [3]), 0.06-16.
